As a reminder, the IC50 is the concentration at which inhibition is half-maximal.

IC50 data for one compound are collected here from article PMC3877901, “Screening Mangrove Endophytic Fungi for Antimalarial Natural Products” (Marine Drugs, 2013).

The experiment deals with A549 human lung adenocarcinoma epithelial cells. The experiment is described as follows: In vitro toxicity assay: cytotoxicity against A549 cells (CellTiter 96 Aqueous One, 72 h). Conditions: read-out: IC50 (nM) A549.

On to `CC1=CC(=O)OCC23CCC(C)=CC2OC2CC(OC(=O)C=CC=CC(C(C)O)OCC1)C3(C)C21CO1` (stereo not shown), for which the IC50 was under 200 nM.
